Measured values from US20140045779A1, “COMPOUNDS CONTAINING AN ALICYCLIE STRUCTURE AND ANTI-TUMOR APPLICATION” (priority 2011, published 2014).
In brackets after ≈: the same amount, converted by molar mass.

How the values were obtained:
[1] = test system: human colorectal cancer cell line HT29; assay: In vitro anti-cancer cell experiment (MTT), HT29; conditions: HT29, text
[2] = test system: MCF7 cells (breast cancer cells); assay: In vitro anti-cancer cell experiment (MTT), MCF7; conditions: MCF7, text
[3] = test system: human pancreatic cancer cell line Panc-1; assay: In vitro anti-cancer cell experiment (MTT), Panc-1; conditions: Panc-1, text
[4] = test system: human lung cancer cell line NCI-H460; assay: In vitro anti-cancer cell experiment (MTT), NCI-H460; conditions: NCI-H460, text

Compound: BrC12CN3CC(Br)(C1)CC(Br)(C3)C2
- IC50, anti-proliferative effect on HT29 [1]: 35.62 µg/mL (≈ 95.3 µM)
- IC50, anti-proliferative effect on MCF7 cells [2]: 19.26 µg/mL (≈ 51.5 µM)
- IC50, anti-proliferative effect on Panc-1 cells [3]: 5.23 µg/mL (≈ 14 µM)
- IC50, anti-proliferative effect on NCI-H460 cells [4]: 7.73 µg/mL (≈ 20.7 µM)
